Reference: patent publication EP3419609B1, “TREATMENT OF ALKAPTONURIA AND TYROSINEMIA TYPE 1” (Università degli Studi di Siena, priority 2016, dated 2017)
pIC50: −log10 of the molar value.

The chains behind the UniProt entries cited, without tags or fusion partners. Where a name states a change or a piece, a line headed by the entry shows the natural chain unless it says otherwise.
UniProt P32755: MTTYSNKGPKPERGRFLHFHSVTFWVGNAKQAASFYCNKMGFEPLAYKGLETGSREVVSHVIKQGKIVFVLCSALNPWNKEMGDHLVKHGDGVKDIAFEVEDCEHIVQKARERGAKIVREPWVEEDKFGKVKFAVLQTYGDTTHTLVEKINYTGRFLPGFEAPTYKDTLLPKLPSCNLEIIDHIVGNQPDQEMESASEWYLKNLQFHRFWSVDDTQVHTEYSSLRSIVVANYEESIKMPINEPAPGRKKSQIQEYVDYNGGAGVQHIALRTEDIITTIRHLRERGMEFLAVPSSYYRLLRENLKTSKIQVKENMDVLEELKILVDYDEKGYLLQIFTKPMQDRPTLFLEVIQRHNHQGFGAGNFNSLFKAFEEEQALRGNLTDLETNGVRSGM

Target: T1, 4-HPPD (Rattus norvegicus, UniProt P32755)
T1 construct: from tissue; host or cells: liver cytosol of a male Wistar rat
Assay: Determination of 4-HPPD activity by oxygen consumption (SDR SensorDish Reader) in rat liver cytosol
Format: biochemical, male Wistar rat
Details: read-out: IC50 (4-HPPD inhibitory activity)
Description: 4-HPPD activity was evaluated in the liver cytosol of a male Wistar rat by monitoring oxygen consumption through the use of the SDR SensorDish® Reader (Presens, Precision Sensing GmbH, Regensburg, Germany). Briefly, a special test tube with an oxygen sensor placed on the bottom was filled with 0.2 M sodium phosphate buffer with pH 7.4, 1.7 mM ascorbic acid (used as a cofactor) and 10.92 mg of rat enzyme preparation (4-HPPD source). The mixture was equilibrated at 37°C for 5 min. and the reaction was started by the addition of substrate ([…], Sigma-Aldrich cod. SAE0003). […] The percentage of inhibition of enzymatic activity was calculated as the ratio of the slopes (decrease of the concentration of O2 (µmol/L) per min.) of the samples containing the inhibitor versus the untreated controls corrected with the negative control values. The IC50 values were calculated by means of regression analysis in the range of tested concentrations by means of the Origin® - Data Analysis and Graphing software using a sigmoid type interpolating curve and plotting on the x-axis the concentrations of the compounds and on the y-axis oxygen consumption values expressed as a percentage of 4-HPPD inhibition, the reduction of oxygen being correlated with inhibition of the enzyme. […]

Q: How did the pIC50 turn out when `O=C1CCCC(=O)C1C(=O)c1ccc(C(F)(F)F)cc1[N+](=O)[O-]` [Compound 1, 2-(2-nitro-4-(trifluoromethyl)benzoyl)cyclohexane-1,3-dione, reference compound] was run?
A: 6.76
